Measured values from patent US20260022143A1, “Cyclic Peptide Inhibitors of IL-23” (JANSSEN PHARMACEUTICA NV, priority 2022, published 2026).

Molecular target: T1, IL-23R (Homo sapiens, UniProt Q5VWK5)
T1 construct: host or cells: HEK293
T1 sequence (Q5VWK5 24-629): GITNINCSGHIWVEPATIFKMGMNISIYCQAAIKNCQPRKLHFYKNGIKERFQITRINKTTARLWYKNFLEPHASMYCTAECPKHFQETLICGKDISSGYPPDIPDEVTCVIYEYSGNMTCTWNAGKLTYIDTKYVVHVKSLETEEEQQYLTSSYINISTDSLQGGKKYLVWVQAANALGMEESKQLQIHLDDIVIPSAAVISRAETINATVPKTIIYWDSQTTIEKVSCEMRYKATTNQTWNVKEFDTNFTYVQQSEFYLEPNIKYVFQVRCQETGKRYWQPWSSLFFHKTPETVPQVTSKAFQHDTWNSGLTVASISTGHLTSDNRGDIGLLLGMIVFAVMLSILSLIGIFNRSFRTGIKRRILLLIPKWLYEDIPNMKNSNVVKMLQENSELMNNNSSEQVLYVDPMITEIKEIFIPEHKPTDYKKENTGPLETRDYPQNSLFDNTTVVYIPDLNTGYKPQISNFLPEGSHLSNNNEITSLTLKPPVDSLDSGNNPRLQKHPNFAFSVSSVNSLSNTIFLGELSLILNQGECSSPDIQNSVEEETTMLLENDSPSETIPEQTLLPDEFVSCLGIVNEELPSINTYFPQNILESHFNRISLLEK
Experiment: IL23R Reporter Assay
Format: cell-based
Conditions: HEK293 cells containing IL-23R, IL-12RP1 and STAT-inducible firefly luciferase reporter; 10 ng/mL IL-23 (EC90); 5 h at 37° C.; read-out: IL23R Reporter Assay

IC50 | Structure (SMILES)
3.9 nM | CC(=O)NCCCC[C@@H]1NC(=O)[C@H](Cc2c[nH]c3c(C)cccc23)NC(=O)[C@H]([C@@H](C)O)NC(=O)[C@H](CC(N)=O)NC(=O)[C@@H](NC(=O)C(F)(F)F)C(C)(C)SSC(C)(C)[C@@H](C(=O)N[C@@H](Cc2ccc(OCCN(C)C)cc2)C(=O)N[C@@H](Cc2ccc3ccccc3c2)C(=O)NC2(C(=O)N[C@@H](CCCCNC(C)=O)C(=O)N[C@@H](CC(N)=O)C(=O)N[C@@H](Cc3cccnc3)C(=O)N(C)CC(N)=O)CCOCC2)NC1=O [compound 53]
5.3 nM | CC(=O)NCCCC[C@@H]1NC(=O)[C@H](Cc2c[nH]c3c(C)cccc23)NC(=O)[C@H]([C@@H](C)O)NC(=O)[C@H](CC(N)=O)NC(=O)[C@@H](NC(=O)C(F)(F)F)C(C)(C)SSC(C)(C)[C@@H](C(=O)N[C@@H](Cc2ccc(OC(F)F)cc2)C(=O)N[C@@H](Cc2ccc3ccccc3c2)C(=O)NC2(C(=O)N[C@@H](CCCCNC(C)=O)C(=O)N[C@@H](CC(N)=O)C(=O)N[C@@H](Cc3cccnc3)C(=O)N(C)CC(N)=O)CCOCC2)NC1=O [compound 54]
2.5 nM | CC(=O)NCCCC[C@@H]1NC(=O)[C@H](Cc2c[nH]c3c(C)cccc23)NC(=O)[C@H]([C@@H](C)O)NC(=O)[C@H](CC(N)=O)NC(=O)[C@@H](NC(=O)C(F)(F)F)C(C)(C)SSC(C)(C)[C@@H](C(=O)N[C@@H](Cc2ccc(OCCN)cc2)C(=O)N[C@@H](Cc2ccc3ccccc3c2)C(=O)NC2(C(=O)N[C@@H](CCCCNC(C)=O)C(=O)N[C@@H](CC(N)=O)C(=O)N[C@@H](Cc3cccnc3)C(=O)N(C)CC(N)=O)CCN(C)CC2)NC1=O [compound 55]
4.7 nM | CC(=O)NCCCC[C@@H]1NC(=O)[C@H](Cc2c[nH]c3c(C)cccc23)NC(=O)[C@H]([C@@H](C)O)NC(=O)[C@H](CC(N)=O)NC(=O)[C@@H](NC(C)=O)C(C)(C)SSC(C)(C)[C@@H](C(=O)N[C@@H](Cc2ccc(OCCN)cc2)C(=O)N[C@@H](Cc2ccc3ccccc3c2)C(=O)NC2(C(=O)N[C@@H](CCCCN(C)C(C)=O)C(=O)N[C@@H](CC(N)=O)C(=O)N[C@@H](Cc3cccnc3)C(=O)N(C)CC(N)=O)CCOCC2)NC1=O [compound 59]
3.3 nM | CC(=O)NCCCC[C@H](NC(=O)C1(NC(=O)[C@H](Cc2ccc3ccccc3c2)NC(=O)[C@H](Cc2ccc(OCCN)cc2)NC(=O)[C@H]2NC(=O)[C@H](CCC(=O)N(C)C)NC(=O)[C@H](Cc3c[nH]c4c(C)cccc34)NC(=O)[C@H]([C@@H](C)O)NC(=O)[C@H](CC(N)=O)NC(=O)[C@@H](NC(=O)C(F)(F)F)C(C)(C)SSC2(C)C)CCOCC1)C(=O)N[C@@H](CC(N)=O)C(=O)N[C@@H](Cc1cccnc1)C(=O)N(C)CC(N)=O [compound 61]
2.8 nM | CC(=O)N(C)CCCC[C@@H]1NC(=O)[C@H](Cc2c[nH]c3c(C)cccc23)NC(=O)[C@H]([C@@H](C)O)NC(=O)[C@H](CC(=O)N(C)C)NC(=O)[C@@H](NC(=O)C(F)(F)F)C(C)(C)SSC(C)(C)[C@@H](C(=O)N[C@@H](Cc2ccc(OCCN(C)C)cc2)C(=O)N[C@@H](Cc2ccc3ccccc3c2)C(=O)NC2(C(=O)N[C@@H](CCCCN(C)C(C)=O)C(=O)N[C@@H](CC(N)=O)C(=O)N[C@@H](Cc3cccnc3)C(=O)N(C)CC(=O)N(C)C)CCOCC2)NC1=O [compound 66, CF3CO-Pen(3)-N(N(Me)2)-T-7MeW-K(NMeAc)-Pen(3)-AEF(N(Me)2)-2Nal-THP-K(NMeAc)-N-3Pya-Sar-CON(Me)2]
2.9 nM | CC(=O)N(C)CCCC[C@@H]1NC(=O)[C@H](Cc2c[nH]c3c(C)cccc23)NC(=O)[C@H]([C@@H](C)O)NC(=O)[C@H](CC(=O)N(C)C)NC(=O)[C@@H](NC(=O)C(F)(F)F)C(C)(C)SSC(C)(C)[C@@H](C(=O)N[C@@H](Cc2ccc(OCCN)cc2)C(=O)N[C@@H](Cc2ccc3ccccc3c2)C(=O)NC2(C(=O)N[C@@H](CCCCN(C)C(C)=O)C(=O)N[C@@H](CC(N)=O)C(=O)N[C@@H](Cc3cccnc3)C(=O)N(C)CC(=O)N(C)C)CCOCC2)NC1=O [compound 68, CF3CO-Pen(3)-N(N(Me)2)-T-7MeW-K(NMeAc)-Pen(3)-AEF-2Nal-THP-K(NMeAc)-N-3Pya-Sar-CON(Me)2]
2.5 nM | CC(=O)NCCCC[C@@H]1NC(=O)[C@H](Cc2c[nH]c3c(C)cccc23)NC(=O)[C@H]([C@@H](C)O)NC(=O)[C@H](CC(N)=O)NC(=O)[C@@H](NC(=O)C(F)(F)F)C(C)(C)SSC(C)(C)[C@@H](C(=O)N[C@@H](Cc2ccc(OCCN)cc2)C(=O)N[C@@H](Cc2ccc3ccccc3c2)C(=O)NC2(C(=O)N[C@@H](CCC(=O)N(C)C)C(=O)N[C@@H](CC(N)=O)C(=O)N[C@@H](Cc3cccnc3)C(=O)N(C)CC(N)=O)CCOCC2)NC1=O [compound 72]
1.9 nM | CC(=O)NCCCC[C@@H]1NC(=O)[C@H](Cc2c[nH]c3c(C)cccc23)NC(=O)[C@H]([C@@H](C)O)NC(=O)[C@H](CC(N)=O)NC(=O)[C@@H](NC(=O)C(F)(F)F)C(C)(C)SSC(C)(C)[C@@H](C(=O)N[C@@H](Cc2ccc(OCCN)cc2)C(=O)N[C@@H](Cc2ccc3ccccc3c2)C(=O)NC2(C(=O)N[C@@H](CCCCNC(C)=O)C(=O)N[C@@H](CC(N)=O)C(=O)N[C@@H](Cc3cccnc3)C(=O)N3CC(F)(F)C[C@H]3C(=O)N(C)C)CCOCC2)NC1=O [compound 73]
2.4 nM | CC(=O)NCCCC[C@@H]1NC(=O)[C@H](Cc2c[nH]c3c(C)cccc23)NC(=O)[C@H]([C@@H](C)O)NC(=O)[C@H](CC(N)=O)NC(=O)[C@@H](NC(=O)C(F)(F)F)C(C)(C)SSC(C)(C)[C@@H](C(=O)N[C@@H](Cc2ccc(OCCN)cc2)C(=O)N[C@@H](Cc2ccc3ccccc3c2)C(=O)NC2(C(=O)N[C@@H](CCCCNC(C)=O)C(=O)N[C@@H](CC(N)=O)C(=O)N[C@@H](Cc3cccnc3)C(=O)N(C)CC(=O)N(C)C)CCOCC2)NC1=O [compound 74]
3.9 nM | CC(=O)N(C)CCCC[C@@H]1NC(=O)[C@H](Cc2c[nH]c3c(C)cccc23)NC(=O)[C@H]([C@@H](C)O)NC(=O)[C@H](CC(=O)N(C)C)NC(=O)[C@@H](NC(=O)C(F)(F)F)C(C)(C)SSC(C)(C)[C@@H](C(=O)N[C@@H](Cc2ccc(OCCN(C)C)cc2)C(=O)N[C@@H](Cc2ccc3ccccc3c2)C(=O)NC2(C(=O)N[C@@H](CCC(=O)N(C)C)C(=O)N[C@@H](CC(N)=O)C(=O)N[C@@H](Cc3cccnc3)C(=O)N(C)CC(N)=O)CCOCC2)NC1=O [compound 79, CF3CO-Pen(3)-N(N(Me)2)-T-7MeW-K(NMeAc)-Pen(3)-AEF(N(Me)2)-2Nal-THP-Q(N(Me)2)-N-3Pya-Sar-CONH2]
2.9 nM | CC(=O)NCCCC[C@@H]1NC(=O)[C@H](Cc2c[nH]c3c(C)cccc23)NC(=O)[C@H]([C@@H](C)O)NC(=O)[C@H](CC(N)=O)NC(=O)[C@@H](NC(=O)CCCCC[N+](C)(C)C)C(C)(C)SSC(C)(C)[C@@H](C(=O)N[C@@H](Cc2ccc(OCCN)cc2)C(=O)N[C@@H](Cc2ccc3ccccc3c2)C(=O)NC2(C(=O)N[C@@H](CCC(=O)O)C(=O)N[C@@H](CC(N)=O)C(=O)N[C@@H](Cc3cccnc3)C(=O)N(C)CC(N)=O)CCOCC2)NC1=O [compound 81]
3.3 nM | CC(=O)NCCCC[C@@H]1NC(=O)[C@H](Cc2c[nH]c3c(C)cccc23)NC(=O)[C@H]([C@@H](C)O)NC(=O)[C@H](CC(N)=O)NC(=O)[C@@H](NC(=O)[C@@H](CCCCNC(=O)CCCCC[N+](C)(C)C)NC(C)=O)C(C)(C)SSC(C)(C)[C@@H](C(=O)N[C@@H](Cc2ccc(OCCN)cc2)C(=O)N[C@@H](Cc2ccc3ccccc3c2)C(=O)NC2(C(=O)N[C@@H](CCC(=O)O)C(=O)N[C@@H](CC(N)=O)C(=O)N[C@@H](Cc3cccnc3)C(=O)N(C)CC(N)=O)CCOCC2)NC1=O [compound 83]
2.7 nM | CC(=O)NCCCC[C@@H]1NC(=O)[C@H](Cc2c[nH]c3c(C)cccc23)NC(=O)[C@H]([C@@H](C)O)NC(=O)[C@H](CC(N)=O)NC(=O)[C@@H](NC(=O)CCCCC[N+](C)(C)C)C(C)(C)SSC(C)(C)[C@@H](C(=O)N[C@@H](Cc2ccc(OCCN)cc2)C(=O)N[C@@H](Cc2ccc3ccccc3c2)C(=O)NC2(C(=O)N[C@@H](CCCCNC(C)=O)C(=O)N[C@@H](CC(N)=O)C(=O)N[C@@H](Cc3cccnc3)C(=O)N(C)CC(N)=O)CCOCC2)NC1=O [compound 89]
2.8 nM | Cc1cccc2c(C[C@@H]3NC(=O)[C@H]([C@@H](C)O)NC(=O)[C@H](CC(=O)N(C)C)NC(=O)[C@@H](NC(=O)CCCCC[N+](C)(C)C)C(C)(C)SSC(C)(C)[C@@H](C(=O)N[C@@H](Cc4ccc(OCCN(C)C)cc4)C(=O)N[C@@H](Cc4ccc5ccccc5c4)C(=O)NC4(C(=O)N[C@@H](CCC(=O)N(C)C)C(=O)N[C@@H](CC(N)=O)C(=O)N[C@@H](Cc5cccnc5)C(=O)N(C)CC(=O)N(C)C)CCOCC4)NC(=O)[C@H](CCC(=O)N(C)C)NC3=O)c[nH]c12 [compound 91, 5cpaCO-Pen(3)-N(N(Me)2)-T-7MeW-Q(N(Me)2)-Pen(3)-AEF(N(Me)2)-2Nal-THP-Q(N(Me)2)-N-3Pya-Sar-CON(Me)2]
3.6 nM | CC(=O)N(C)CCCC[C@@H]1NC(=O)[C@H](Cc2c[nH]c3c(C)cccc23)NC(=O)[C@H]([C@@H](C)O)NC(=O)[C@H](CC(=O)N(C)C)NC(=O)[C@@H](NC(=O)[C@H](CCCC[N+](C)(C)C)NC(=O)C(F)(F)F)C(C)(C)SSC(C)(C)[C@@H](C(=O)N[C@@H](Cc2ccc(OCCN(C)C)cc2)C(=O)N[C@@H](Cc2ccc3ccccc3c2)C(=O)NC2(C(=O)N[C@@H](CCC(=O)O)C(=O)N[C@@H](CC(N)=O)C(=O)N[C@@H](Cc3cccnc3)C(=O)N(C)CC(=O)N(C)C)CCOCC2)NC1=O [compound 93, CF3CO-K(Me)3-Pen(3)-N(N(Me)2)-T-7MeW-K(NMeAc)-Pen(3)-AEF(N(Me)2)-2Nal-THP-E-N-3Pya-Sar-CON(Me)2]
